# Test results published in US20220211652A1, “USE OF AN RXR AGONIST IN TREATING HER2+ CANCERS” (Io Therapeutics, Inc, priority 2019, published 2022).
# What was measured:
# [1] = tested on: MCF7 cells; assay: Growth inhibition of MCF7 breast cancer cells, DAPI nuclei count; type: cell-based; settings: Her2− MCF7 cell line, FIG. 1A; IRX4204 10-1000 nM, trastuzumab 0.1-10 μg/ml
# [2] = tested on: SkBr3 cells; assay: Growth inhibition of SkBr3 breast cancer cells, DAPI nuclei count; type: cell-based; settings: Her2+ SkBr3 cell line, FIG. 1B; IRX4204 10-1000 nM, trastuzumab 0.1-10 μg/ml
substance,measurement,setting,value
Herceptin: Trastuzumab (sold as HERCEPTIN®) binds to domain IV of the extracellular segment of Her2 [reference compound],growth inhibitory effect (in words),[1],neither agent had more than marginal effect
same,growth inhibitory effect (in words),[2],moderate growth inhibitory effect
